The results in this text go back to patent publication US5972914A, “Remedies for liver diseases” (Meiji Milk Products Co., Ltd., priority 1998, dated 1999).

Each structure is given as a SMILES string. “And” between values parts separate entries of the source, which are not always exact repeats. Equal values may be shown once. Where a name gives a salt, the structure may show the parent alone.

Assay [1] has as its system liver regeneration after partial hepatectomy. The assay can be described thus: Liver regeneration after 70% hepatectomy, BrdU labeling index. The note with it: EA-HCl 10 mg/rat. It is filed as in vivo, Sprague-Dawley rats. Background: Dividing cells build labelled thymidine or BrdU into new DNA.
In the next assay the test system is liver of healthy rats. The assay can be described thus: BrdU labeling index of liver in healthy rats. To be noted: EA-HCl 10 mg/rat. It is filed as in vivo, Sprague-Dawley rats.

For the compound `NCCO` [EA-HCl, monoethanolamine-HCl], the BrdU labeling index in assay [1] (individual rats, 70% hepatectomy) was 38.5% and 51.8% and 45.2% and 45.1% and 37.5% and 41.6% and 47.4%; in the assay on liver of healthy rats (individual healthy rats) it was 1.0% and 1.1% and 1.5%. For the same compound, the “BrdU labeling index, Mean ± SD” value is 43.9 ± 5.1% in assay [1] (n = 7, 70% hepatectomy) and 1.2 ± 0.3% in the assay with liver of healthy rats (n = 3, healthy rats).
